# According to patent US20190091281A1, “DELIVERY PHARMACEUTICAL COMPOSITIONS INCLUDING PERMEATION ENHANCERS” (AQUESTIVE THERAPEUTICS, INC., priority 2017, published 2019):
# Tested on: frozen buccal tissue
substance,measurement,value
Cholesterol amine,Average flux,0.25 ug/cm2*min
